The values that follow are results of earlier work, collected in patent publication US10144908B2, “Liquid soap having enhanced antibacterial activity” (Conopco, Inc., priority 2013, dated 2018).

The conditions of this data set: in water at 25° C.

On to Silver oxide, for which the Ksp is 2.1e-08 mol/L.
As for Silver salicylate, the Ksp is 1.5e-05 mol/L.
